Biological target: DQA10501-DQB10301 (Homo sapiens, UniProt P01909+P01920)
Experiment: Competitive MHC class II binding assay, DQA10501-DQB10301

Chains of the proteins cited; added tags and fusions are not shown. Residues count along the entry.
UniProt P01920, 33-261: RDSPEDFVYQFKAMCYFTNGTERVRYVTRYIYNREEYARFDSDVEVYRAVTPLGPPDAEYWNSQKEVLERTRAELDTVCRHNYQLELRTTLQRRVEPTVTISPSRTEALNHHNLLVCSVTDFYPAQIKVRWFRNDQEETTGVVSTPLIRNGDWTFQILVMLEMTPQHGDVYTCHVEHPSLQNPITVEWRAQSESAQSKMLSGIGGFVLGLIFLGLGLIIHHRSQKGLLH

`CC[C@H](C)[C@H](NC(=O)CNC(=O)[C@@H](N)CCCNC(=N)N)C(=O)N[C@@H](CCC(=O)O)C(=O)N[C@@H](Cc1ccc(O)cc1)C(=O)N[C@H](C(=O)N[C@@H](CCC(N)=O)C(=O)N[C@@H](Cc1c[nH]cn1)C(=O)N[C@@H](CC(N)=O)C(=O)NCC(=O)N[C@H](C(=O)N[C@H](C(=O)N[C@@H](CCC(N)=O)C(=O)N[C@@H](CCC(=O)O)C(=O)N[C@@H](CO)C(=O)O)C(C)C)C(C)C)[C@@H](C)CC` [pep-025] was tested. Which IC50 did it give?
Its IC50 is under 1000 nM.
